According to patent US11168102B1, “Bicyclic heteroaryl compounds and uses thereof” (Revolution Medicines, Inc., priority 2019, dated 2021):

Tested on: cellular pERK in PC-9 cells (EGFR Ex19Del)
Assay: Potency assay: pERK (AlphaLISA SureFire Ultra p-ERK1/2) in PC-9 cells
Type: cell-based
Conditions: Homo sapiens, PC-9, 1 h, read-out: SOS1 pERK IC50

C[C@@H](Nc1ncnc2c1cc(C1CCS(=O)(=NC#N)CC1)c(=O)n2C)c1cccc(C(F)F)c1F (stereo partly drawn) [Example 47, [4-[4-[[(1R)-1-[3-(difluoromethyl)-2-fluoro-phenyl]ethyl]amino]-8-methyl-7-oxo-pyrido[2,3-d]pyrimidin-6-yl]-1-oxo-thian-1-ylidene]cyanamide]
IC50: 0.0547 µM
